What was measured:
[1] = target: LOX-1 129-273 (human) (UniProt P78380); assay: native MS; no ligand; 10 uM LOX129 in 200 mM NH4Ac pH 7.5, 5% isopropanol, room temperature, Vc = 40 V; species seen: dimer (main) and tetramer (trace)
[2] = target: LOX-1 129-273 (human) (UniProt P78380); assay: ESI-MS under denaturing conditions; LOX129 diluted to 1 uM in 50/50 water/acetonitrile with 0.5% formic acid; chains to covalent dimer

## LOX-1 129-273 (from UniProt P78380 129-273) (domain or fragment)
[1]
  stoichiometry N: 2
[2]
  stoichiometry N: 2

Reference: PMC9814544, “A small-molecule inhibitor of lectin-like oxidized LDL receptor-1 acts by stabilizing an inactive receptor tetramer state” (Communications Chemistry, 2020)
